Article doi:10.1101/2022.02.04.479134, “A Suite of TMPRSS2 Assays for Screening Drug Repurposing Candidates as Potential Treatments of COVID-19” (bioRxiv, 2022)

Sequences of proteins named here, by UniProt entry; tags and fusion partners are left off. Residues count along the entry.
UniProt O15393, 106-492 limits assumed: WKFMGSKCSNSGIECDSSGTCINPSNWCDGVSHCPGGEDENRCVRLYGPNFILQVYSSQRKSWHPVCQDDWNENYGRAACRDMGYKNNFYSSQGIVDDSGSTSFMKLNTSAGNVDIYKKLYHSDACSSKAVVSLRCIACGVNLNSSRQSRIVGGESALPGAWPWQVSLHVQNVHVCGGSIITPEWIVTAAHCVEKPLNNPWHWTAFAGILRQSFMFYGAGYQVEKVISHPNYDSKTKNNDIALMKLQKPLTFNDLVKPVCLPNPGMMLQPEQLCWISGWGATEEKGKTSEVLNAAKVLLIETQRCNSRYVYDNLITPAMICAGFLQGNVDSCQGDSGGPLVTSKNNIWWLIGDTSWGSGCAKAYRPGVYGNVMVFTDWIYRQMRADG

Molecular target: Recombinant Human TMPRSS2 (Homo sapiens, UniProt O15393)
Experiment: TMPRSS2 mass spectrometry detection biochemical assay (Cbz-SKPSKRSFIED substrate)
Conditions: read-out: Biochemical (mass spectrometry) AC50; 10 μM peptide, 0.4 μM TMPRSS2, 1 h RT; N/D = Not Detected

## COc1ccc(CC(=O)NC(NC(=NC#N)Nc2cccc3ncccc23)C(C)(C)C)cc1OC (stereo not shown)
  AC50: 39.5 µM
